The values that follow are results of earlier work, collected in patent US6057450A, “Derivatives of pyroglutaminic acid preparation process and applications” (Totiam, S.L., priority 1994, dated 2000).

The data set has as its system patients with cancer. The settings on record: cited from earlier work.

Regarding IL-2: Interleukin-2 (IL-2), where the note is “high doses of IL-2 alone, with LAK cells or TIL, 435 patients, 679 occasions”, the “deaths related with the treatment” value is on record as “nine”. Besides, under “high doses of IL-2 alone, with LAK cells or TIL, 435 patients”, the “patients with myocardial infarction” value was “five”. Also, the anemia incidence (high doses of IL-2 alone, with LAK cells or TIL) was 61%. For the same substance, the hypotension incidence (high doses of IL-2 alone, with LAK cells or TIL, of therapeutical actions) is given as 60%. Besides, the “somnolence, disorientation and coma” value (high doses of IL-2 alone, with LAK cells or TIL, patients) is 38%. Moreover, where the note is “high doses of IL-2 associated to LAK cells, TIL, IFNs, TNF”, the “toxicity and response index, 788 patients” value is “high toxicity and the low response index”. Further, the “effect on tumor metastases” value (patients with favourable prognosis factors) is “can cause the regression of tumor metastases”.
